# Reference: IntAct's records for PubMed 19131971
# B1: Myc proto-oncogene protein (Homo sapiens), P01106 (parent)
# chain: MDFFRVVENQQPPATMPLNVSFTNRNYDLDYDSVQPYFYCDEEENFYQQQQQSELQPPAPSEDIWKKFELLPTPPLSPSRRSGLCSPSYVAVTPFSLRGDNDGGGGSFSTADQLEMVTELLGGDMVNQSFICDPDDETFIKNIIIQDCMWSGFSAAAKLVSEKLASYQAARKDSGSPNPARGHSVCSTSSLYLQDLSAAASECIDPSVVFPYPLNDSSSPKSCASQDSSAFSPSSDSLLSSTESSPQGSPEPLVLHEETPPTTSSDSEEEQEDEEEIDVVSVEKRQAPGKRSESGSPSAGGHSKPPHSPLVLKRCHVSTHQHNYAAPPSTRKDYPAAKRVKLDSVRVLRQISNNRKCTSPRSSDTEENVKRRTHNVLERQRRNELKRSFFALRDQIPELENNEKAPKVVILKKATAYILSVQAEEQKLISEEDLLRKRREQLKHKLEQLRNSCA
# Variants of: B1
# Conditions: with axin1_human AXIN1
row,effect of a mutation on the interaction,Variant
1,increasing interaction,S77D

# Variants of: B1
# Conditions: with axin1_human AXIN1
# Remark: another data set of the same source
row,effect of a mutation on the interaction,Variant
1,disrupting interaction,S77A

# Variants of: B1
# Conditions: with axin1_human AXIN1
# Remark: another data set of the same source
row,effect of a mutation on the interaction,Variant
1,increasing interaction,T73A
